Reference: PMC8320619 (Current Research in Toxicology, 2020)

Chains of the proteins cited; added tags and fusions are not shown. Lines headed by an entry give the natural chain unless they say otherwise; changes in a name come on top.
UniProt O15439: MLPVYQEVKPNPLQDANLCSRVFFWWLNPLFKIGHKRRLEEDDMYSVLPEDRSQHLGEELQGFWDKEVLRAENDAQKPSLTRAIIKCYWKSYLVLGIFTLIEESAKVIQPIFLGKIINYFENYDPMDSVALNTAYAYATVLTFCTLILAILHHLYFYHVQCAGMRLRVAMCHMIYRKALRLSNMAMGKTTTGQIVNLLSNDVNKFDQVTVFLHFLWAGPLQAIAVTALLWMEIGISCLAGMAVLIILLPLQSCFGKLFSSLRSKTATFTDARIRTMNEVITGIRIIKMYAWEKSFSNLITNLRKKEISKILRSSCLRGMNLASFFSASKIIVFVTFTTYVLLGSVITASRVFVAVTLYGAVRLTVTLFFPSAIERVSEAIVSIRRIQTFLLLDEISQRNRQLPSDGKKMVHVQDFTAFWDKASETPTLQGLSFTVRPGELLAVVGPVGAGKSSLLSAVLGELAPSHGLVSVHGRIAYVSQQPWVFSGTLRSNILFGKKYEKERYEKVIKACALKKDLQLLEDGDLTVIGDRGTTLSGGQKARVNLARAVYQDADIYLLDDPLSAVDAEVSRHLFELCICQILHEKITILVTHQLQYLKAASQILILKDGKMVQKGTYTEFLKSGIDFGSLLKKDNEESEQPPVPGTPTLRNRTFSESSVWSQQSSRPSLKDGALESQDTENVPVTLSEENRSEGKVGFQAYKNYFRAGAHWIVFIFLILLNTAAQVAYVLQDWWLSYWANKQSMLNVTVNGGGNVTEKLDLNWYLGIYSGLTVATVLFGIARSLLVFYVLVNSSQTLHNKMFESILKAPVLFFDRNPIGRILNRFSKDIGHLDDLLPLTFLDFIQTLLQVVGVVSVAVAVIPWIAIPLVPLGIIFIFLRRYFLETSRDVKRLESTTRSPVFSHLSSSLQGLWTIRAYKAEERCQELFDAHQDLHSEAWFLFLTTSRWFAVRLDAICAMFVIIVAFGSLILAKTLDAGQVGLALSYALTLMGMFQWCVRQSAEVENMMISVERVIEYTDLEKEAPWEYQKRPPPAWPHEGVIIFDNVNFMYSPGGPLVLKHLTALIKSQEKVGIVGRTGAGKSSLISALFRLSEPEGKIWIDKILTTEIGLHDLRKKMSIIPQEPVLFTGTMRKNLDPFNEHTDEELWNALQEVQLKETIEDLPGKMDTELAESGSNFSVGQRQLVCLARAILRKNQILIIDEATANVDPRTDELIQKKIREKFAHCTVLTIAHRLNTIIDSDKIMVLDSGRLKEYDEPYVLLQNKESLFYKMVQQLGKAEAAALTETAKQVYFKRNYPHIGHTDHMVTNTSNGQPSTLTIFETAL

Molecular target: multidrug resistance associated protein 4 (MRP4) (Homo sapiens, UniProt O15439)
Format: biochemical

IC50: 14.2 µM
SMILES: CN(C)C(=O)CCSC(SCCC(=O)O)c1cccc(/C=C/c2ccc3ccc(Cl)cc3n2)c1 (stereo not shown) [MK-571]
